Yeast mating assay B: variants of the scFv Ab-14

Antigen: PDVDLGDISGINAS, a 14-residue peptide of the SARS-CoV-2 spike HR2 region.

Each scFv is VH, the linker GGGGSGGGGSGGGGS, VL, as in the parent Ab-14, and differs from it in the CDRs of the light chain only.
VH: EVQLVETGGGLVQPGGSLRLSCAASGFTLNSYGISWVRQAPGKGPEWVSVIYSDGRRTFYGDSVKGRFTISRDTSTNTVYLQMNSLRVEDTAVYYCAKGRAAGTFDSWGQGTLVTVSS
VL: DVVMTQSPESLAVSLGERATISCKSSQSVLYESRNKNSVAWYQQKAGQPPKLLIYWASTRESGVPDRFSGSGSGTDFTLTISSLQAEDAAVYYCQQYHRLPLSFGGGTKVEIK

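The starting antibody came from a phage panning campaign against this peptide. The variants were designed computationally from a first round of random CDR variants and then made and measured. Several design methods are mixed in this list. AlphaSeq pools MATa yeast showing the antibodies with MATalpha yeast showing the peptide. Pairs that bind mate more often; barcode pairs of the diploids are counted by sequencing. Each replicate has its own calibration line, from reference interactions of the BCL2 family. There are six technical replicates.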

Positions count from residue 1 of the parent VL; S26M puts M in place of S.
Variants here have at most six changes.
The Kd shown is the geometric mean over detected replicates; a lower Kd is a better binder.
"no signal" means that the variant was in the library but no mating with the target was seen in any replicate; the authors take this as a sign of poor binding, and no number exists.
Of ten entries with the parent sequence, four were seen in most replicates (averages 2.2 nM to 240 nM), three in one and three in none, so single entries are noisy.

| changes | Kd (apparent) | seen in | empty controls |
|---|---|---|---|
| S26M/V29E/L30Q/S33D/W56E/E61C | 1.2 nM | 6 of 6 | 4 of 18 |
| V29W/W56G | 690 pM | 12 of 12 | 2 of 36 |
| K24E/R34F/S103C | no signal | 0 of 6 | 0 of 18 |
| S25L/S28K/S33H/N35T/W56N | 5.1 nM | 6 of 6 | 1 of 18 |
| S25L/Y31G/E32W/S33W/W56N | 1.7 nM | 6 of 6 | 5 of 18 |
| K24D/S25F/V29W/W56G | 1.4 nM | 6 of 6 | 0 of 18 |
| S25I/S26D/S28K/W56H | 520 pM | 6 of 6 | 3 of 18 |
| S25V/Q27P/V29W/W56E | 620 pM | 6 of 6 | 0 of 18 |
| S25Q/W56D/H98Q | 320 pM | 6 of 6 | 1 of 18 |
| S25L/W56N/E61M/S62M | 1.9 nM | 6 of 6 | 1 of 18 |
| S25F/S28W/N35V/W56N | 4.3 nM | 6 of 6 | 1 of 18 |
| S25L/S26E/V29K/L30N/W56N | 1.3 nM | 6 of 6 | 1 of 18 |
| S25L/V29E/Y31M/W56E | 4.4 nM | 6 of 6 | 1 of 18 |
| S25L/V29W/W56H/E61M | 2.3 nM | 6 of 6 | 1 of 18 |
| Q27K/L30D/W56N | 1.9 nM | 6 of 6 | 2 of 18 |
| S25L/S26R/V29T/W56R | 2.2 nM | 6 of 6 | 2 of 18 |
| W56M/Y97I | 2.2 µM | 3 of 6 | 0 of 18 |
| S25L/S26R/V29T/L30K/K36Q/W56G | 1.9 nM | 6 of 6 | 1 of 18 |
| S25L/L30P/N35M/W56N | 3.7 nM | 6 of 6 | 0 of 18 |
| S25I/S26E/S28G/W56G/T59V | 590 pM | 6 of 6 | 0 of 18 |
| S25C/S26L/N35D/W56H/S62D | 1.6 nM | 6 of 6 | 0 of 18 |
| L30K/Y31P/W56D | 3.3 nM | 6 of 6 | 2 of 18 |
| S25L/V29D/W56N/T59Q/S62V | 690 pM | 6 of 6 | 0 of 18 |
| S25L/S26Q/V29E/W56E/E61L | 3.1 nM | 6 of 6 | 0 of 18 |
| S25C/Q27D/W56H/H98F/P101C | 31 nM | 5 of 6 | 0 of 18 |
| S25D/R34F/W56G/S62N/P101V | no signal | 0 of 6 | 0 of 18 |
| S25V/K36S/W56N | 660 pM | 6 of 6 | 0 of 18 |
| Q27E/S38N | 1.8 nM | 1 of 6 | 0 of 18 |
| S26F/Q27I/V29Y/Y31E/W56E | 4.3 nM | 4 of 6 | 0 of 18 |
| R34D/K36P/T59V/E61C | 480 nM | 1 of 6 | 0 of 18 |
| L30E/K36S | 6.0 nM | 6 of 6 | 0 of 18 |
| S25L/L30D/N35M/W56N | 990 pM | 6 of 6 | 0 of 18 |
| S25F/S28W/N35T/K36Q/W56N | 1.2 nM | 6 of 6 | 0 of 18 |
| S25L/L30E/W56N | 1.2 nM | 6 of 6 | 1 of 18 |
| S25V/V29E/N35M/W56N | 770 pM | 6 of 6 | 2 of 18 |
| S25V/S28L/V29G/E32G/W56E | 2.4 nM | 6 of 6 | 0 of 18 |
| L30R/W56D/H98R/S103M | 1.6 nM | 6 of 6 | 1 of 18 |
| S25L/S26Q/W56E/Q96D | 600 pM | 6 of 6 | 0 of 18 |
| S25L/V29H/W56H/E61L | 7.5 nM | 6 of 6 | 0 of 18 |
| S25Y/S28P/S58N/S62P | 70 nM | 6 of 6 | 1 of 18 |
| S25L/L30P/W56H | 1.3 nM | 6 of 6 | 0 of 18 |
| S25L/V29Q/K36F/W56N | 990 pM | 6 of 6 | 2 of 18 |
| S25L/S33Q/N35Q/W56N | 1.4 nM | 6 of 6 | 1 of 18 |
| V29E/W56E/S62E | 1.6 nM | 6 of 6 | 0 of 18 |
| R34G/W56Q/E61A/Q95E | 6.2 nM | 6 of 6 | 1 of 18 |
| L30T/E32C/R34H/W56E | 5.1 nM | 6 of 6 | 0 of 18 |
| S25L/S26E/L30E/W56N/E61L | 1.1 nM | 6 of 6 | 4 of 18 |
| Y31M/W56Q | 40 nM | 5 of 6 | 0 of 18 |
| S25L/S26P/Q27M/V29T/W56N | 530 pM | 6 of 6 | 1 of 18 |
| S33H/K36T | 31 nM | 5 of 6 | 1 of 18 |
| S26Q/S28G/L30P/K36W/W56G | 830 pM | 6 of 6 | 1 of 18 |
| S25L/S26D/Q27N/V29T/L30N/N35Q | 7.6 nM | 6 of 6 | 3 of 18 |
| S25G/Y31P/W56M/S62F/R99F | no signal | 0 of 6 | 0 of 18 |
| V29W/K36F/N37W/W56N/T59Q | 1.1 nM | 6 of 6 | 0 of 18 |
| S25I/V29W/W56G/T59S | 370 pM | 6 of 6 | 1 of 18 |
| S25L/S26R/V29E/L30N/W56N/Q96I | 330 nM | 6 of 6 | 2 of 18 |
| V29Q/R34M/S38P/S62E | 15 nM | 6 of 6 | 0 of 18 |
| S25L/S26Q/V29M/W56N/T59Q/E61M | 810 pM | 6 of 6 | 0 of 18 |
| K24V/S25L/S26Q/W56N/T59K/S62E | 620 pM | 6 of 6 | 0 of 18 |
| S25L/V29E/R34G/W56N/E61M | 5.3 nM | 6 of 6 | 0 of 18 |
| S25L/L102I | 5.7 nM | 6 of 6 | 1 of 18 |
| S25F/V29Q/W56N/E61M | 20 nM | 6 of 6 | 0 of 18 |
| K24H/Q27F/S38N/W56N | 2.5 nM | 6 of 6 | 0 of 18 |
| S25V/N37Q/W56D | 770 pM | 6 of 6 | 3 of 18 |
| S25V/S26Q/L30P/W56S | 1.7 nM | 6 of 6 | 1 of 18 |
| S25L/S26P/Q27W/V29T/N35Q/W56N | 710 pM | 6 of 6 | 0 of 18 |
| S25I/S26G/S28G/K36T/W56G | 610 pM | 6 of 6 | 1 of 18 |
| E32T/W56N/R99T | 44 nM | 6 of 6 | 0 of 18 |
| S25Y/S26Y/Q27P/V29E/W56Q/R99L | 750 pM | 6 of 6 | 0 of 18 |
| N37W/Q96T | no signal | 0 of 6 | 0 of 18 |

The first 4 variants above that were never detected:

changes	Kd (apparent)	seen in	empty controls
K24E/R34F/S103C	no signal	0 of 6	0 of 18
S25D/R34F/W56G/S62N/P101V	no signal	0 of 6	0 of 18
S25G/Y31P/W56M/S62F/R99F	no signal	0 of 6	0 of 18
N37W/Q96T	no signal	0 of 6	0 of 18

Where one sequence has several entries in the source, the replicates are pooled.
The authors averaged sequences with at least three values out of six and counted those with two or fewer as poor binders.
Empty control strains, which show no peptide, gave a signal in 4% of pairings with all light chain designs; the median was 430 nM and 95% of these signals were weaker than 38 nM. No background was subtracted. For each scFv, signals with the empty controls are counted beside the result.
The range of this assay differs from that of the first round, and the authors advise against merging the two.

Data: MIT Lincoln Laboratory AlphaSeq set, Li et al. 2023, doi:10.1038/s41467-023-39022-2, as distributed in FLAb.